Test results from patent US20250339461A1 (priority 2024, published 2025).

Tested on: migraine headache

Substance	benefit as prophylactic agent for migraines (Example 2 patient, history)	benefit for prophylaxis (Example 5 patient, history)	effect on frequency of headaches after 4-6 weeks (Example 1 patient, riboflavin 200 mg bid, magnesium oxide 500 mg tid and coenzyme Q10 100 mg bid prescribed together)
magnesium	without benefit	partially helpful	–
magnesium oxide	–	–	did not affect the frequency
